Source: ChEMBL document CHEMBL2177065, “14-Alkoxy- and 14-acyloxypyridomorphinans: μ agonist/δ antagonist opioid analgesics with diminished tolerance and dependence side effects” (J Med Chem, 2012)

What was measured:
[1] = Selectivity ratio of Ki for mu opioid receptor to Ki for delta opioid receptor
[2] = Selectivity ratio of Ki for kappa opioid receptor to Ki for delta opioid receptor

| SMILES | Ratio Ki [1] | Ratio Ki [2] |
| --- | --- | --- |
| Oc1ccc2c3c1O[C@H]1c4ncc(-c5ccc(Cl)cc5)cc4C[C@@]4(O)[C@@H](C2)N(CC2CC2)CC[C@]314 | 23 | 9 |
| CN1CC[C@]23c4c5ccc(O)c4O[C@H]2c2ncc(-c4ccc(Cl)cc4)cc2C[C@@]3(O)[C@H]1C5 | 59 | 120 |
